According to ChEMBL document CHEMBL2069217, “Self-organizing molecular field analysis of NSAIDs: assessment of pharmacokinetic and physicochemical properties using 3D-QSPkR approach” (Eur J Med Chem, 2012):

Experiment: Dissociation constant, pKa of the compound
Assay type: physicochemical

Compound: CC(C(=O)O)c1cccc(Oc2ccccc2)c1 (stereo unspecified) [FENOPROFEN]
- pKa: 4.5
